Screening data from PubChem.
The list is not random: actives were taken first. Their share in the collection is about 1.5%.
RAD52 anneal inh – inhibitors of human RAD52 DNA annealing | P43351 | recombinant RAD52 DNA annealing, FRET fluorescence | inhibition, % at 18.7 µM | actives 0.46% (n = 360,000) | AID 651710;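 active = every replicate showing at least 50% inhibition; inconclusive = mean inhibition at least 50% but not in every replicate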
PglD inh – PglD (C. jejuni) enzyme inhibition; purified PglD enzyme, DTNB colorimetric CoA detection; inhibition, % at 12.5 µM; actives 0.098% (n = 360,000); AID 602405; in the data active = inhibition above about 16%, passing the limit was not always enough; inconclusive = no clear call, values can overlap the other calls
Yeast UUG start – alters start codon recognition fidelity in yeast | S. cerevisiae UUG-firefly luciferase reporter, luminescence/redox ratio | activity score, % at 18.7 µM | hit rate 0.13% among 350,000 | AID 602363;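 active means replicate mean at a twofold rise or more, about +100% in these data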;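 further: firefly luciferase made from a UUG start codon reports start codon fidelity; reporter light over untreated wells divided by growth signal over untreated wells; some hits fall short of that in this replicate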
GSIS activator – primary screen for activators of insulin secretion dependent on glucose, INS-1E cells, GLuc reporter luminescence | actives 0.61% (n = 370,000) | activation, % at 16.6 µM | INS-1E GLuc reporter insulin secretion, 2-3 h;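 active = lowest replicate activation of at least 40%, so every replicate reaches that level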;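 also: 0% = median of neutral control wells and 100% = median of IBMX positive control wells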
Casp6 inh – blocks human caspase-6 cleavage activity; AID 686996; purified caspase-6, Z-VEID-R110 cleavage fluorescence; P55212; inhibition, % at 12.5 µM; actives 0.53% (n = 350,000);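 active = mean inhibition across replicates at least about 35%, with every replicate also reaching that limit, limit read from the data; inconclusive = only one of the two criteria met; inactive = neither criterion met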;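 also: 0% = median of neutral control wells and 100% = no fluorescence left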
RAD54 branch – blocks human RAD54 Holliday junction branch migration. actives 0.14% (n = 360,000). Q92698. FAM/BHQ fluorescence. inhibition, % at 10.4 µM;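 active = mean normalized replicate activity at least 40 and at least half of replicates scoring 40 or more; inconclusive = only one of the two criteria met; inactive = mean below 40 and under half of replicates reaching 40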;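 also: 0% = median of neutral control wells and 100% = median of positive control wells; inhibitors cause a drop in the FAM fluorescence signal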
DNA binder FP – counter-screen for RAD52 inhibitors: DNA binding compounds. shares compounds with RAD52 anneal inh. Salmon sperm DNA/acridine orange FP displacement. AC50, µM. actives 8% (n = 1,000);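 active = fitted half-maximal concentration for signal loss at or below twice the highest dose tested, in every separate run, actives reach about 64 µM in these data; inconclusive = runs disagree, or flat partial signal loss, or poor fit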
* hit, by the source's call; i = inactive; ? = inconclusive; . = not tested or not shown.

(1) Cc1noc(C)c1NC(=O)Nc1ccc2c(c1)C(=O)N([C@H](C)CO)C[C@@H](C)[C@H](CN(C)Cc1ccc(C(=O)O)cc1)OCCCC[C@H](C)O2
(2) O=C(CN(C1CCCCC1)S(=O)(=O)c1ccccc1)NCc1cccnc1
(3) COCCNC(=S)N/N=C(\C)c1ccc(Cl)s1
(4) COc1ccccc1OCCCN1CCC(C(O)(c2ccccc2)c2ccccc2)CC1
(5) OC(c1ccccc1)(c1ccccc1)C1CCN(CCCOc2ccccc2Cl)CC1
(6) Cc1cc(N2CCN(C)CC2)nc2ccc(NC(=S)NCc3cccs3)cc12
(7) CCN1CCN(c2cc(C)c3cc(NC(=S)NCc4cccs4)ccc3n2)CC1
(8) CCC(C)NC(=S)Nc1ccc2nc(N3CCN(CC)CC3)cc(C)c2c1 (configuration not stated)

| entry no. | 1 | 2 | 3 | 4 | 5 | 6 | 7 | 8 |
| --- | --- | --- | --- | --- | --- | --- | --- | --- |
| RAD52 anneal inh | . | . | -7 | 9 | 55* | 63* | 50* | 44 |
| PglD inh | -1 | -3 | . | . | . | -3 | -2 | . |
| Yeast UUG start | 17 | -16 | . | . | . | -31 | -17 | . |
| GSIS activator | 22 | . | -1 | -33 | -15 | -6 | 7 | -1 |
| Casp6 inh | . | . | 2 | -7 | -3 | -12 | -11 | -27 |
| RAD54 branch | 0 | -2 | . | . | . | 38 | 37 | . |
| DNA binder FP | . | . | . | . | i | i | i | . |

(9) COc1ccc(N)cc1NC(=O)CN1CCCC1
(10) Cc1cc(N)ccc1NC(=O)CN1CCCC1
(11) COc1ccc(Cl)cc1NC(=O)CN1CCCCCC1
(12) COc1ccc(NC(=O)Nc2ccc3c(c2)CC(=O)N([C@H](C)CO)C[C@H](C)[C@@H](CN(C)S(=O)(=O)c2ccc(F)cc2)O3)cc1
(13) c1cncc(Nc2c3ccccc3nc3ccccc23)c1
(14) COc1cc(OC)cc(-c2sc3ccc(OC)cc3c2C#CC2(N)CCCCC2)c1
(15) CC1CCN(Cc2c(C(=O)N/N=C/c3cc(Br)ccc3O)nnn2-c2nonc2N)CC1
(16) C/C(=N\NC(=O)c1nnn(-c2nonc2N)c1CN1CCC(C)CC1)c1ccc(Br)cc1

| entry no. | 9 | 10 | 11 | 12 | 13 | 14 | 15 | 16 |
| --- | --- | --- | --- | --- | --- | --- | --- | --- |
| RAD52 anneal inh | 79* | 101* | -4 | -26 | 59* | -55 | 2 | 72* |
| PglD inh | -5 | -16 | . | -2 | -4 | -1 | 4 | -4 |
| Yeast UUG start | -18 | 2 | . | -2 | -7 | -18 | -33 | 2 |
| GSIS activator | -1 | 17 | -7 | -10 | 1 | -16 | 1 | 1 |
| Casp6 inh | -45 | -82 | 0 | 0 | 1 | -5 | -3 | -2 |
| RAD54 branch | 43 | 24 | . | -3 | 78* | 5 | -1 | 0 |
| DNA binder FP | i | i | . | . | i | i | . | i |

(17) CCN(C[C@H]1N[C@@](C)(C(=O)OC)[C@H]2C(=O)N(Cc3ccccc3)C(=O)[C@@H]12)S(=O)(=O)c1ccc(F)cc1
(18) Cc1cc(N2CCOCC2)nc2ccc(NC(=S)N3CCN(c4ccccc4)CC3)cc12
(19) CCN1CCN(c2cc(C)c3cc(NC(=S)N4CCOCC4)ccc3n2)CC1
(20) Cc1cc(N2CCN(C)CC2)nc2ccc(NC(=S)N3CCN(c4ccccn4)CC3)cc12
(21) CCN1CCN(c2cc(C)c3cc(NC(=S)N(CC)CC)ccc3n2)CC1
(22) CO[C@H]1CN(C)C(=O)c2ccc(NS(=O)(=O)CC(F)(F)F)cc2OC[C@H](C)N(C(=O)NC(C)C)C[C@@H]1C
(23) O=C(Cn1c(C(F)(F)F)nc2ccccc21)Oc1cccc(C(F)(F)F)c1
(24) CCCOc1cc(N)ccc1C(=O)OCCN(CC)CC

| entry no. | 17 | 18 | 19 | 20 | 21 | 22 | 23 | 24 |
| --- | --- | --- | --- | --- | --- | --- | --- | --- |
| RAD52 anneal inh | -3 | -8 | 78* | 71* | 68* | . | . | 62* |
| PglD inh | -2 | . | . | . | . | . | -4 | 1 |
| Yeast UUG start | 9 | . | . | . | . | . | -8 | -5 |
| GSIS activator | -1 | 7 | 29 | -1 | 32 | -6 | -7 | . |
| Casp6 inh | 10 | -2 | -33 | -24 | -88 | . | . | -16 |
| RAD54 branch | 1 | . | . | . | . | . | 1 | 1 |
| DNA binder FP | . | . | i | i | i | . | . | i |

(25) CCN(CC)CCOC(=O)c1ccc(NC(=O)/C=C/c2cccs2)cc1
(26) CCN(CC)CCOC(=O)c1ccc(N)cc1
(27) O=C(NCc1ccccc1F)c1cccc(S(=O)(=O)NCc2ccccc2)c1
(28) COc1ccc(O)c(/C=N/NC(=O)CCC(=O)Nc2ccc(F)cc2)c1
(29) CC1=CC(C)(C)N=C(Nc2nc(C)c3cc(C)cc(C)c3n2)N1
(30) CCOC(=O)c1c(-c2ccccc2)oc2ccc(O)c(CN(C)C)c12
(31) CCOC(=O)c1c(CSCc2ccccc2)oc2ccc(O)c(CN(C)C)c12
(32) CN(C)CCCN=c1cc(-c2ccccc2)oc2ccc(Cl)cc12

| entry no. | 25 | 26 | 27 | 28 | 29 | 30 | 31 | 32 |
| --- | --- | --- | --- | --- | --- | --- | --- | --- |
| RAD52 anneal inh | 58* | 88* | 0 | -12 | 79* | . | 61* | 80* |
| PglD inh | . | 5 | -1 | 5 | 4 | 5 | 1 | . |
| Yeast UUG start | . | -12 | 6 | -4 | -6 | -3 | -10 | . |
| GSIS activator | -8 | . | -16 | -16 | -34 | . | -52 | 10 |
| Casp6 inh | -10 | . | -2 | -2 | 2 | . | 2 | -27 |
| RAD54 branch | . | -1 | -4 | 0 | 32 | 24 | 24 | . |
| DNA binder FP | i | i | . | . | i | . | i | 28µM* |

(33) CN(C)CCCN1C(=O)c2oc3ccc(Cl)cc3c(=O)c2C1c1cccnc1 (configuration not stated)
(34) CCCCN(C)C(=O)c1sc(=O)n(Cc2cc(Cl)ccc2OC)c1C
(35) COc1c(C=O)cc2c3c1CCCN3CCC2
(36) NCc1cc2c3c(c1)CCCN3CCC2
(37) CN1CCN(c2ccc(Nc3ccnc4cc(Cl)ccc34)cc2)CC1
(38) COc1cc(OC)nc(Nc2nc(C(N)CCc3ccccc3)cs2)n1 (configuration not stated)
(39) COc1cccc(CNCCSc2nnnn2C)c1OC
(40) O=C1c2cccc3cccc(c23)C(=O)N1CCN1CCN(CC(O)COCc2ccc(Cl)cc2)CC1 (configuration not stated)

| entry no. | 33 | 34 | 35 | 36 | 37 | 38 | 39 | 40 |
| --- | --- | --- | --- | --- | --- | --- | --- | --- |
| RAD52 anneal inh | -20 | -12 | 2 | 80* | 88* | 62* | 103* | . |
| PglD inh | 6 | -4 | 0 | -2 | 7 | 4 | 5 | . |
| Yeast UUG start | 0 | -15 | -11 | -10 | -26 | -36 | -33 | . |
| GSIS activator | 4 | -24 | 7 | 9 | 2 | -17 | 2 | -28 |
| Casp6 inh | -3 | 0 | -13 | -179 | -10 | 1 | -47 | . |
| RAD54 branch | -11 | 0 | -2 | 55* | 53* | 13 | -11 | . |
| DNA binder FP | . | . | . | ? | i | i | i | . |

(41) COc1cc(COCC(O)CN2CCN(CCN3C(=O)c4cccc5cccc(c45)C3=O)CC2)cc(OC)c1OC (configuration not stated)
(42) Cc1ccc(C)c(OCC(O)CN2CCN(CCN3C(=O)c4cccc5cccc(c45)C3=O)CC2)c1 (configuration not stated)
(43) COc1cccc(OCC(O)CN2CCC(CN3C(=O)c4cccc5cccc(c45)C3=O)CC2)c1 (configuration not stated)
(44) CCc1nc2ccccc2c(C(=O)OCC(=O)NCc2ccc3c(c2)OCO3)c1C
(45) CCc1ccc(NC(=O)CNC(=O)[C@@H]2Cc3ccccc3CN2C(=O)OC(C)(C)C)cc1
(46) CCOC(=O)CCc1nc2ccccc2[nH]1
(47) COCC(=O)O[C@]1(CCN(C)CCCc2nc3ccccc3[nH]2)CCc2cc(F)ccc2[C@@H]1C(C)C

| entry no. | 41 | 42 | 43 | 44 | 45 | 46 | 47 |
| --- | --- | --- | --- | --- | --- | --- | --- |
| RAD52 anneal inh | 85* | 99* | 86* | -27 | -12 | -14 | 54* |
| PglD inh | . | . | . | . | 0 | -2 | 6 |
| Yeast UUG start | . | . | . | . | 19 | -15 | 4 |
| GSIS activator | 16 | -29 | -22 | 6 | -18 | 10 | 73 |
| Casp6 inh | -3 | -2 | -3 | 1 | 3 | -2 | 7 |
| RAD54 branch | . | . | . | . | -2 | -5 | 22 |
| DNA binder FP | i | i | i | . | . | . | i |
